Data on one molecule can be found in US20130189747A1, “Compositions Comprising A Polypeptide Having Cellulolytic Enhancing Activity And A Sulfur-Containing Compound And Uses Thereof” (priority 2010, published 2013).

This test relates to Trichoderma reesei cellulase composition. The test can be described thus: Hydrolysis of milled unwashed pretreated corn stover (PCS) by the Trichoderma reesei cellulase composition with/without GH61 polypeptide and sulfur-containing compound. Particulars: in the absence of a sulfur-containing compound. The format is biochemical.

B1: T. aurantiacus GH61A polypeptide: GH61A polypeptide having cellulolytic enhancing activity (SEQ ID NO: 14), recombinantly prepared in Aspergillus oryzae JaL250 (protein, listed as Thermoascus aurantiacus)
chain: MSFSKIIATAGVLASASLVAGHGFVQNIVIDGKYYGGYLVNQYPYMSNPPEVIAWSTTATDLGFVDGTGYQTPDIICHRGAKPGALTAPVSPGGTVELQWTPWPDSHHGPVINYLAPCNGDCSTVDKTQLEFFKIAESGLINDDNPPGIWASDNLIAANNSWTVTIPTTIAPGNYVLRHEIIALHSAQNQDGAQNYPQCINLQVTGGGSDNPAGTLGTALYHDTDPGILINIYQKLSSYIIPGPPLYTG
As to B1, the “Effect of the GH61 polypeptide on hydrolysis of milled unwashed PCS by the T. reesei cellulase composition” value is on record as “enhanced”.
